## Antibody variant affinities, Ab-14 light chain, assay B

Target: peptide PDVDLGDISGINAS, taken from heptad repeat 2 (HR2) of SARS-CoV-2 spike.

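The starting antibody came from a phage panning campaign against this peptide. These sequences belong to a second round, designed from the earlier measurements on random variants of the parent. Their group label is 14L_En_HC (En: ensemble of fine-tuned language models; HC: hill climbing; a sequence that several methods proposed may carry one label only). In AlphaSeq, yeast of one mating type display the scFv and yeast of the other type display the target. After mating in shaken culture at 30 °C for 16 h, diploids were selected and their barcode pairs sequenced. A regression on co-assayed BCL2-family reference pairs converts the normalised counts of each replicate to an apparent Kd. Each pool was mated in six replicate cultures.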

Parent: Ab-14, a human scFv built as VH, the linker GGGGSGGGGSGGGGS, VL. Only the CDRs of the light chain vary.
VH: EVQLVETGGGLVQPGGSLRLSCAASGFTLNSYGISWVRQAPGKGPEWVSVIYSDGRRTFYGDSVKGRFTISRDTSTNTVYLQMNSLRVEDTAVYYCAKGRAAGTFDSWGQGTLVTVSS
VL: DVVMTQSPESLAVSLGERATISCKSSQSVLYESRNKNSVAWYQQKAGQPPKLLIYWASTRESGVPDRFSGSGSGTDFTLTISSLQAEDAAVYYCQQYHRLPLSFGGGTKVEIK

The parent's light chain CDRs are KSSQSVLYESRNKNSVA, WASTRES, QQYHRLPLS; each variant's own CDRs replace them letter for letter.
Scale: log10 of Kd in nM, estimated from mating counts; low values are strong binders.
Averages over replicates are reported, and they cover detected replicates only.
Where no diploid with the target was found in that replicate, the entry reads "nd": below detection, most likely a poor binder, though not proof of it.
Empty control strains, which show no peptide, gave a signal in 4% of pairings with all light chain designs; the median was 2.64 and 95% of these signals were weaker than 1.59. No background was subtracted. Also given: how often the same scFv was detected with the empty control strains, with their mean in brackets.
Values of this round are not directly comparable with the first-round values of the same sequences.
Of ten entries with the parent sequence, four were seen in most replicates (averages 0.34 to 2.37), three in one and three in none, so single entries are noisy.
The authors' rule: three or more of the six replicates give a measured affinity, fewer mean a poor binder.

CDR-L1 | CDR-L2 | CDR-L3 | replicates, log10 nM | mean log10 Kd (nM) | control signals
KLPQATMLESVSKNSVA | ELSTRGS | QQYHRLPLS | 0.43 / 0.61 / 0.02 / 0.06 / 0.55 / 0.80 | 0.41 | 1 of 18 (2.16)
NVGQHMDGESRNKNSVA | HQSTRED | QHYHRLPLS | nd / nd / nd / nd / nd / nd | nd | 0 of 18
KLGDMVHTLSHNKNSIA | DMRTRES | QQYYRLPLS | 0.23 / 0.02 / 0.05 / 0.02 / -0.03 / 0.16 | 0.07 | 1 of 18 (2.73)
HLLQTVMYGQTRRNSVA | HAVTREN | QQYHRLPLS | 1.44 / 1.62 / 0.73 / 1.39 / 1.40 / 1.93 | 1.42 | 1 of 18 (2.56)
KLYQMMGYLSHNKNSIA | DMSRREN | QQYHRLPLS | 0.79 / 0.50 / 0.43 / 0.95 / 0.63 / 0.42 | 0.62 | 0 of 18
KLPAATMQESVSKNSVA | ELSTRGS | QQYHRLPLS | 0.28 / 0.49 / 0.81 / 0.28 / 0.26 / 0.70 | 0.47 | 1 of 18 (3.62)
ILYDSVGTLSRNNNSVA | DNSTRES | QQYDRLPLS | nd / 3.73 / nd / 2.03 / 3.53 / nd | 3.10 | 2 of 18 (2.46)
MISDLTMYGSRNKSSVA | DLSTRGS | QQYHRLPLS | nd / nd / 1.10 / 0.33 / 0.40 / nd | 0.61 | 0 of 18
KISMMYRYESTASNSIA | EMTTRAE | QSYHRLPLS | 0.79 / 0.64 / 0.55 / 0.51 / 0.53 / 0.85 | 0.64 | 4 of 18 (3.05)
MISPSVMYGYRNLNSVA | QTQTRES | QQYNRLPLS | 0.09 / -0.11 / 0.02 / -0.33 / 0.02 / 0.22 | -0.02 | 0 of 18
HISTSMRYESSLKNAIA | NSQTRES | QQYHRLPLS | 0.14 / -0.03 / 0.19 / -0.17 / 0.02 / 0.20 | 0.06 | 1 of 18 (4.41)
MFSQLTYTGSRARNAVA | QASTREN | QQYHHLPLI | 1.19 / 0.78 / 0.85 / 0.90 / 1.12 / 1.44 | 1.05 | 0 of 18
SISMSMAFLSRNKNSVA | ENSTRES | QQYHRLPLM | 0.72 / 0.67 / 0.55 / 0.44 / 0.67 / 0.87 | 0.65 | 2 of 18 (4.10)
NVGQSMDGEVRNKNSVA | HQSTRED | QHYHRLPLS | 2.10 / 1.84 / 1.09 / 0.97 / 1.59 / 1.51 | 1.52 | 1 of 18 (1.64)
SLADSVHMESRNKNSVA | DNSTRES | QHYHRLPLS | 1.81 / 2.27 / nd / 3.02 / 1.99 / 2.58 | 2.33 | 1 of 18 (1.92)
KLRQSTHIESFNKNNVA | EMTTRES | QSYDRLPLS | 0.50 / 1.18 / 1.00 / 0.82 / 1.63 / 1.40 | 1.09 | 2 of 18 (2.19)
KISMMSSIESITHNSVA | QTSTREN | QQYDRLPLS | 0.47 / 0.40 / 0.23 / -0.01 / 0.20 / 0.54 | 0.31 | 0 of 18
KLLQEVTGHMRNRNSVA | HNSTRED | QQYDRLPLS | 1.93 / 1.31 / 1.09 / nd / 1.40 / nd | 1.43 | 1 of 18 (2.80)
KIAMSMNLTSHHINSVA | QSETRED | QQYNHLPLS | 1.20 / 2.03 / 1.34 / 1.99 / 1.60 / 1.58 | 1.62 | 0 of 18
NFSQMVLYGQTLKNSVA | HASTREE | QQYHRLPLI | 0.73 / 0.66 / 0.63 / 0.75 / 0.58 / 0.87 | 0.70 | 2 of 18 (3.76)
KLSISHQVESINKSNVA | EMVTRES | QQYDRLPLT | 2.02 / 1.78 / 2.00 / 1.31 / nd / 1.72 | 1.77 | 2 of 18 (2.55)
QLLMATMQGTYERNSVA | HAETRED | QSYHRLPLS | nd / nd / nd / nd / nd / nd | nd | 0 of 18
KLRQVTGYESYNKNSVA | QTSTRAN | QDYHRLPLS | 1.87 / 2.34 / 1.44 / 2.77 / 2.29 / 2.37 | 2.18 | 2 of 18 (3.27)
HISMTMNYLSRNKNSIA | EESTRED | QQYHRLPLS | nd / nd / nd / nd / nd / nd | nd | 0 of 18
KLPMATMVESVSKNNVA | ELSTRGS | QQYNRLPLS | 0.36 / -0.21 / 0.02 / -0.16 / -0.13 / 0.10 | 0.00 | 1 of 18 (2.14)
SIYDMTGMESRNKNPIA | DVSTRPS | QQYDRLPLS | 0.87 / 1.09 / 0.86 / 1.05 / 0.81 / 1.26 | 0.99 | 1 of 18 (2.05)
HFSQVTMYGSWNYNSVA | QTSTREE | QQYDRLPLS | 1.00 / 0.85 / 0.79 / 0.51 / 0.60 / 0.74 | 0.75 | 2 of 18 (3.55)
HISMMVGTKGYNKRSVA | NAETRED | QQYHRLPLS | 1.75 / nd / nd / 1.65 / 1.68 / 0.32 | 1.35 | 0 of 18
KISMLYNYASTNKNSIA | EMTTRES | QHYHRLPLS | nd / nd / nd / nd / nd / nd | nd | 0 of 18
TISQLMHYESRNKNNVA | GTSTRES | QCYHRLPLS | 1.35 / 0.93 / 1.15 / 1.01 / 1.08 / 1.56 | 1.18 | 4 of 18 (2.94)
HFSQVTMYGYWNKNSVA | QTSTRED | QQYDRLPLS | nd / nd / nd / nd / nd / nd | nd | 0 of 18
MMSMGFLGGMRAKNNVA | QEETRES | QQYHRLPLI | nd / 1.51 / nd / 1.55 / 1.70 / 2.09 | 1.71 | 0 of 18
ILSQSVLMGMHTKNSVA | QATLRFN | QQYHRLPFM | nd / 2.03 / 1.95 / 1.94 / 2.18 / 2.39 | 2.10 | 0 of 18
KLRQSTMIESFNKNNVA | EMSTRES | QSYDRLPLS | 1.41 / 1.08 / 0.61 / 0.54 / 1.81 / 1.03 | 1.08 | 0 of 18
KLSMMYQHTSRNKNNIA | ERSTREE | QQYHHLPLS | 0.26 / 0.02 / -0.49 / -0.55 / -0.24 / 0.40 | -0.10 | 0 of 18
NVGQMMDGETRNRNNVA | HQSTRED | QHYHRLPLS | 0.36 / 0.06 / -0.06 / 0.06 / 0.19 / 0.11 | 0.12 | 4 of 18 (3.46)
SLMQVGGYESNVHNSIA | DLRTRES | QQYHRLPLS | nd / nd / 1.86 / 1.34 / nd / 2.00 | 1.73 | 0 of 18
NVGQLMDGEYRNKNSVA | HQSTRED | QHYHRLPLS | 1.01 / 1.33 / 1.00 / 0.77 / 0.80 / 1.09 | 1.00 | 2 of 18 (2.06)
KIAATALYESGNANSVA | QNSTRES | QQYHRLPLS | 1.40 / 1.54 / 1.36 / 1.31 / 2.20 / 1.89 | 1.62 | 1 of 18 (2.26)
KLRQSTVIEQFNKNNVA | EMTTRES | QSYDRLPLS | nd / nd / 1.43 / nd / 2.72 / nd | 2.07 | 0 of 18
TLGQVTMVESYNKDSVA | QANTRLE | QDYHRLPLS | 1.04 / 0.74 / 0.73 / 0.90 / 0.93 / 0.86 | 0.87 | 0 of 18
KVSQSVNVGQKNKNSLA | EMSTREF | QDYHRLPLS | 0.56 / 0.70 / 0.58 / 1.39 / 0.87 / 0.86 | 0.83 | 0 of 18
TISYSALMTGLNRNSVA | QAEERLD | QQYHRLPLS | 0.52 / 0.50 / 0.65 / 0.22 / 0.55 / 0.28 | 0.45 | 1 of 18 (3.04)
TISTSFLMENQFKNSVA | QASTRES | QCYDRLPLS | 2.71 / 2.01 / 1.97 / 1.46 / 1.89 / 1.86 | 1.99 | 1 of 18 (4.24)
HISQMVMYGSCNKNNVA | QVSLRED | QQYHRLPLS | 0.56 / 0.37 / 0.86 / 1.35 / 1.30 / 1.12 | 0.93 | 1 of 18 (1.43)

3 of these entries, quoted again:

CDR-L1 | CDR-L2 | CDR-L3 | replicates, log10 nM | mean log10 Kd (nM) | control signals
HISMMVGTKGYNKRSVA | NAETRED | QQYHRLPLS | 1.75 / nd / nd / 1.65 / 1.68 / 0.32 | 1.35 | 0 of 18
ILSQSVLMGMHTKNSVA | QATLRFN | QQYHRLPFM | nd / 2.03 / 1.95 / 1.94 / 2.18 / 2.39 | 2.10 | 0 of 18
KLRQSTVIEQFNKNNVA | EMTTRES | QSYDRLPLS | nd / nd / 1.43 / nd / 2.72 / nd | 2.07 | 0 of 18

Values reported by Li et al. 2023, doi:10.1038/s41467-023-39022-2 (FLAb copy).